The source of these data is US5385833A, “Pseudomonas sp. ATCC No. 49794 alcohol dehydrogenase” (The Scripps Research Institute, priority 1992, dated 1995).

For the test, the system named is Pseudomonas sp. strain PED alcohol dehydrogenase. Put plainly: PED alcohol dehydrogenase enzyme assay, reduction of carbonyl substrates (relative rates). It is filed as biochemical. Conditions: Table 2; determined as described in Table 1 (10 mM ketone, 0.45 mM NADH, 340 nm).

The structures appear in SMILES notation. Some compounds may have been tested in ways that are not shown here.

`O=C1CCN(Cc2ccccc2)CC1` returned a Relative rate of 6.
